# scFv variants of Ab-14 (heavy chain) against a SARS-CoV-2 spike peptide

Data: MIT Lincoln Laboratory AlphaSeq set, Engelhart et al. 2022, doi:10.1038/s41597-022-01779-4, as distributed in FLAb.

Binding partner: SARS-CoV-2 spike HR2 peptide, sequence PDVDLGDISGINAS.

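The parent was found by panning a naive human phage display library on the peptide. The library (AAYL49) carries one to three amino acid substitutions per variant, with no insertions or deletions. Affinity was read by AlphaSeq, a pooled yeast mating assay with surface-displayed partners. Binding brings cells together so that they mate, and sequencing counts the barcode pairs among the diploids. Scores were corrected for input abundance and mapped to Kd with protein pairs of known affinity run in the same pool. Each pool was mated in three replicate cultures.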

Parent: Ab-14, a human scFv built as VH, a (GGGGS)3 linker, VL. Only the CDRs of the heavy chain vary.
VH: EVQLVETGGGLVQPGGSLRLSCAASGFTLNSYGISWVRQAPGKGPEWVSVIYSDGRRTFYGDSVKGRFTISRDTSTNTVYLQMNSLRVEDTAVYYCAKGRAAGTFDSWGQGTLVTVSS
VL: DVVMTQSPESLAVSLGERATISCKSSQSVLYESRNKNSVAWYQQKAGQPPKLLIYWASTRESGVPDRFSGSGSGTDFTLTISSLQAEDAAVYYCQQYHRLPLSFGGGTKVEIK

Variants are written as CDR1, CDR2 and CDR3 of the heavy chain (limits as in the source). Parent: GFTLNSYGIS, VIYSDGRRTFYGDSVK, GRAAGTFDS. Numbers give log10(Kd / nM), so 0 is 1 nM and 3 is 1 µM. Smaller is tighter. "nd" marks a missing value. The strain was present, yet no cells mated with the target were sequenced in that replicate, which points to weak or no binding. For reference, the parent read 0.65 as the reference entry and 4.11 (one replicate of three) as a member of this library.

| # | CDR-H1 | CDR-H2 | CDR-H3 | log10 Kd (nM) by replicate | empty controls |
|---|---|---|---|---|---|
| 1 | GQTLNSYGCS | VIYSDGRRTFYGDSVK | GRAMGTFDS | nd 5.16 nd | 3/9 (4.76) |
| 2 | GFTLNSYGIS | VIYEDGRRTFEGDSVK | GRAAGQFDS | nd nd 4.20 | 4/9 (4.74) |
| 3 | GFTLNSTGIS | VIYSDGRRTPYGDSVK | GTAAGTFDS | nd 4.11 nd | 0/9 |
| 4 | GFTLNSYGIS | VIVSDGRRTFYGDMVK | GRAAGTFQS | nd 4.14 nd | 2/9 (4.35) |
| 5 | GFTLNDYDIS | VIESDGRRTFYGDSVK | GRAAGTFDS | 4.18 nd nd | 2/9 (3.52) |
| 6 | GFTLSSYGIS | VIYSDGRRTFYGHSVK | GRAAGTFDC | nd 3.52 nd | 2/9 (4.17) |
| 7 | GFTLNSYGIS | VIYSDGRRTFYGESVK | GRFAGTMDS | 1.24 1.44 1.37 | 0/9 |
| 8 | GFTANSYGIS | VIYSDGRRSFYGDSVK | GRAGGTFDS | nd nd nd | 0/9 |
| 9 | GFALNSYGIS | VIYPDGRRTFYGASVK | GRAAGTFDS | 2.44 2.43 2.26 | 1/9 (3.33) |
| 10 | GFTLNSYGSS | VIYTDARRTFYGDSVK | GRAAGTFDS | nd 4.21 nd | 3/9 (3.66) |
| 11 | GFTLNCYGIS | VIYMDGRRTVYGDSVK | GRAAGTFDS | nd nd nd | 1/9 (2.83) |
| 12 | GFTLNSYGIS | VIYSDWRRTFLGVSVK | GRAAGTFDS | nd nd 5.32 | 4/9 (5.48) |
| 13 | GATLNSYGIS | VIYSDGRRTFYGDSVK | GRAAGDFGS | nd 4.09 3.95 | 0/9 |
| 14 | GFTLNSYGTS | VIYSDARRTFYGDSVK | GRAAGDFDS | nd 4.33 nd | 3/9 (4.07) |
| 15 | LFTLNSYGIS | VIYSDGRRTFYGDMVK | GRAAGTRDS | nd nd nd | 0/9 |
| 16 | GFTLNSYGIS | VIYSDGRITFYGDSWK | GTAAGTFDS | nd nd nd | 0/9 |
| 17 | GFTLNSYGVS | VIYSDGRATFYGDSVK | GRAAGAFDS | 3.81 2.81 3.32 | 0/9 |
| 18 | GFHLNSYGIS | VIYSDGRRTFYGDSVK | GRAAGTFDS | 1.21 1.48 1.51 | 0/9 |
| 19 | GETLNSYVNS | VIYSDGRRTFYGDSVK | GRAAGTFDS | nd nd nd | 1/9 (3.52) |
| 20 | GFTLNSYGIS | VITSDGQRTFYGDSHK | GRAAGTFDS | nd nd 4.99 | 2/9 (4.69) |
| 21 | GFTLNSYEYS | VIYSDGRRTFYFDSVK | GRAAGTFDS | nd nd nd | 0/9 |
| 22 | GFTLNSYGIR | VIYSDQRRTFYGDSVK | GRAAGTFDK | nd nd nd | 0/9 |
| 23 | GFTRNSYGIS | VIYPDGRRTFYGDSVK | GRAAGTFDS | nd nd nd | 0/9 |
| 24 | GFTLNSYGIS | VIYSDGSNTFYGDSVK | GRAAGTADS | nd nd nd | 0/9 |
| 25 | GFTLNSRGIS | VDYSDGRRTFYGDSVK | GRAAGIFDS | nd 4.16 nd | 2/9 (3.76) |
| 26 | GFTLNSYGIS | VIYSYGRRTFYGDFVK | GRGAGTFDS | nd nd nd | 1/9 (2.51) |
| 27 | GFTLNSENIS | VIYSDGRRTFYGDSVK | GRAAPTFDS | nd 3.34 nd | 7/9 (4.28) |
| 28 | GFTLNSYGIS | VEYSDGRRTFYGDSDK | GRAAGTFDT | nd nd nd | 1/9 (3.99) |
| 29 | GTTLNSYGIS | VDYSDGRRTFYGDSVK | GRAAGTFDS | nd 3.93 nd | 3/9 (4.24) |
| 30 | GFTLNSYGIS | VIYSEGRRLFAGDSVK | GRAAGTFDS | nd nd nd | 1/9 (4.72) |
| 31 | GFTLNSYGIS | FIYSDGRRTFYGESHK | GRAAGTFDS | 4.18 3.32 nd | 3/9 (3.72) |
| 32 | GFTLNSYGIS | VIYSDGRRWFEGDDVK | GRAAGTFDS | nd nd nd | 1/9 (4.08) |
| 33 | GFTLNSYGIS | VIYSCGRRTFYGDSVS | GREAGTFDS | nd 5.10 nd | 4/9 (4.53) |
| 34 | GFTLNSYGIS | RIYSDNRRTFYGDSVK | GRAAGTFTS | 4.04 nd nd | 2/9 (3.89) |

Repeated from above, the 4 best binders with a signal in all replicates:

CDR-H1	CDR-H2	CDR-H3	log10 Kd (nM) by replicate	empty controls
GFTLNSYGIS	VIYSDGRRTFYGESVK	GRFAGTMDS	1.24 1.44 1.37	0/9
GFHLNSYGIS	VIYSDGRRTFYGDSVK	GRAAGTFDS	1.21 1.48 1.51	0/9
GFALNSYGIS	VIYPDGRRTFYGASVK	GRAAGTFDS	2.44 2.43 2.26	1/9 (3.33)
GFTLNSYGVS	VIYSDGRATFYGDSVK	GRAAGAFDS	3.81 2.81 3.32	0/9

Background: pairings of library AAYL49 with three empty control strains gave a value in 15% of cases (median 4.06, 5th percentile 2.83). Values in that range, when seen in few replicates, are hard to tell from nonspecific mating. Also given: how often the same scFv was detected with the empty control strains, with their mean in brackets.